# Results published in patent publication US20250243245A1 (priority 2022, published 2025).
# Assays:
# E. coli BL21 = conditions: BL21, 24 h
# E. coli strain BL21 = conditions: 5×10^5 cfu, 24 hours incubation; MIC range above which no bacterial growth
SMILES,IC99% (~MIC) (E. coli BL21),MIC (E. coli strain BL21)
CC[C@H](C)[C@H](NC(=O)[C@H](CCC(=O)O)NC(=O)[C@H](CC(C)C)NC(=O)[C@@H](NC(=O)[C@H](CCCCN)NC(=O)[C@H](CCC(=O)O)NC(=O)[C@@H]1CCCN1C(=O)[C@H](CC(C)C)NC(=O)[C@H](CCCCN)NC(=O)[C@@H](N)CCCCN)[C@@H](C)CC)C(=O)N[C@@H](CC(C)C)C(=O)NCC(=O)N[C@@H](CO)C(=O)NCC(=O)N[C@@H](Cc1ccc(O)cc1)C(=O)N[C@@H](CCCCN)C(=O)N[C@@H](CCCCN)C(=O)N[C@@H](CC(C)C)C(=O)N1CCC[C@H]1C(=O)N[C@@H](Cc1ccccc1)C(=O)N[C@@H](Cc1c[nH]c2ccccc12)C(=O)N[C@@H](CCC(N)=O)C(=O)N[C@@H](CCCNC(=N)N)C(=O)N[C@@H](CCCNC(=N)N)C(=O)N[C@H](C(=O)N[C@@H](CCCNC(=N)N)C(=O)N[C@@H](CCCNC(=N)N)C(=O)N[C@@H](Cc1c[nH]c2ccccc12)C(=O)N[C@@H](CCCNC(=N)N)C(=O)N[C@@H](CCCNC(=N)N)C(=O)O)[C@@H](C)CC [Gen-2] (H-KKLPEKILEILGSGYKKLPFWQRRIRRWRR-OH; N-terminus and C-terminus assumed),4.48 ± 0.22 µM,–
"CC(C)C[C@@H]1NC(=O)[C@H](CCCNC(=N)N)NC(=O)[C@H](CCCNC(=N)N)NC(=O)[C@@H](NC(=O)[C@@H](N)CCCCN)CSSC[C@@H](C(=O)N[C@@H](CCCNC(=N)N)C(=O)NCC(=O)N[C@@H](CCCNC(=N)N)C(=O)N[C@@H](CCC(N)=O)C(=O)O)NC(=O)[C@H](Cc2ccc(O)cc2)NC(=O)[C@H]([C@@H](C)O)NC(=O)[C@H](C(C)C)NC(=O)[C@@H]2CSSC[C@H](NC1=O)C(=O)N[C@@H](Cc1ccc(O)cc1)C(=O)N[C@@H](CCCCN)C(=O)N[C@@H](CCC(N)=O)C(=O)N[C@@H](CCCNC(=N)N)C(=O)N2 [Peptide L19GA, KC2RRLC6YKQRC11VTYC15RGRQ]",–,1250 to 2500 µM
CC[C@H](C)[C@H](NC(=O)[C@H](CCCCN)NC(=O)[C@H](CC(C)C)NC(=O)[C@@H](NC(=O)[C@H](CCCCN)NC(=O)[C@H](CCCCN)NC(=O)[C@@H]1CCCN1C(=O)[C@H](CC(C)C)NC(=O)[C@H](CCCCN)NC(=O)[C@@H](N)CCCCN)[C@@H](C)CC)C(=O)N[C@@H](CC(C)C)C(=O)NCC(=O)N[C@@H](CO)C(=O)NCC(=O)N[C@@H](Cc1ccc(O)cc1)C(=O)NCC(=O)N[C@@H](CO)C(=O)N1CCC[C@H]1C(=O)NCC(=O)N[C@@H](Cc1ccccc1)C(=O)N[C@@H](Cc1c[nH]c2ccccc12)C(=O)N[C@@H](CCC(N)=O)C(=O)N[C@@H](CCCNC(=N)N)C(=O)N[C@@H](CCCNC(=N)N)C(=O)N[C@H](C(=O)N[C@@H](CCCNC(=N)N)C(=O)N[C@@H](CCCNC(=N)N)C(=O)N[C@@H](Cc1c[nH]c2ccccc12)C(=O)N[C@@H](CCCNC(=N)N)C(=O)N[C@@H](CCCNC(=N)N)C(=O)O)[C@@H](C)CC [Peptide 30P-3],2.41 ± 0.11 µM,–
CC[C@H](C)[C@H](NC(=O)[C@H](CCCNC(=N)N)NC(=O)[C@H](CCCNC(=N)N)NC(=O)[C@H](CCC(N)=O)NC(=O)[C@H](Cc1c[nH]c2ccccc12)NC(=O)[C@H](Cc1ccccc1)NC(=O)CNC(=O)[C@@H]1CCCN1C(=O)[C@H](CO)NC(=O)CNC(=O)[C@H](Cc1ccc(O)cc1)NC(=O)CNC(=O)[C@H](CO)NC(=O)[C@H](CCC(=O)O)NC(=O)[C@H](CC(C)C)NC(=O)[C@@H](NC(=O)[C@H](CCCCN)NC(=O)[C@H](CC(C)C)NC(=O)[C@@H](NC(=O)[C@H](CCCCN)NC(=O)[C@H](CCC(=O)O)NC(=O)[C@@H]1CCCN1C(=O)[C@H](CC(C)C)NC(=O)[C@H](CCCCN)NC(=O)[C@@H](N)CCCCN)[C@@H](C)CC)[C@@H](C)CC)C(=O)N[C@@H](CCCNC(=N)N)C(=O)N[C@@H](CCCNC(=N)N)C(=O)N[C@@H](Cc1c[nH]c2ccccc12)C(=O)N[C@@H](CCCNC(=N)N)C(=O)N[C@@H](CCCNC(=N)N)C(=O)O [UGK-13] (H-KKLPEKILKILESGYGSPGFWQRRIRRWRR-OH),1.40 ± 0.03 µM,–
CC[C@H](C)[C@H](NC(=O)[C@H](CCCNC(=N)N)NC(=O)[C@H](CCCNC(=N)N)NC(=O)[C@H](CCC(N)=O)NC(=O)[C@H](Cc1c[nH]c2ccccc12)NC(=O)[C@H](Cc1ccccc1)NC(=O)CNC(=O)[C@@H]1CCCN1C(=O)[C@H](CO)NC(=O)CNC(=O)[C@H](CCCCN)NC(=O)[C@H](CC(C)C)NC(=O)[C@H](CO)NC(=O)[C@H](CCC(=O)O)NC(=O)[C@H](CC(C)C)NC(=O)[C@@H](NC(=O)[C@H](CCCCN)NC(=O)[C@H](CC(C)C)NC(=O)[C@@H](NC(=O)[C@H](CCCCN)NC(=O)[C@H](CCC(=O)O)NC(=O)[C@@H]1CCCN1C(=O)[C@H](CC(C)C)NC(=O)[C@H](CCCCN)NC(=O)[C@@H](N)CCCCN)[C@@H](C)CC)[C@@H](C)CC)C(=O)N[C@@H](CCCNC(=N)N)C(=O)N[C@@H](CCCNC(=N)N)C(=O)N[C@@H](Cc1c[nH]c2ccccc12)C(=O)N[C@@H](CCCNC(=N)N)C(=O)N[C@@H](CCCNC(=N)N)C(=O)O [UGK-17] (H-KKLPEKILKILESLKGSPGFWQRRIRRWRR-OH),1.97 ± 0.06 µM,–

# Where a SMILES comes first, the peptide text is derived from it.
